One experiment concerns the target wild-type A2aR (Homo sapiens, UniProt P29274). Kind of experiment: Competition assay against [3H]ZM241385, detergent-solubilised wild-type A2aR. Conditions: read-out: Ki (M) wt; [3H]ZM241385 10 nM, 1 h on ice, […] DDM, 400 mM NaCl; Cheng-Prusoff.
Experiment [1] has as its target thermo-stable mutant Rant 21 (A2aR) (Homo sapiens, UniProt P29274, A54L/K122A/T88A/V239A). Kind of experiment: Competition assay against [3H]ZM241385, detergent-solubilised mutant Rant 21. The note with it: read-out: Ki (M) Rant 21; [3H]ZM241385 10 nM, 1 h on ice, […] DDM, 400 mM NaCl; Cheng-Prusoff.

Chains of the proteins cited; added tags and fusions are not shown.
UniProt P29274, whole entry A54L/T88A/K122A/V239A: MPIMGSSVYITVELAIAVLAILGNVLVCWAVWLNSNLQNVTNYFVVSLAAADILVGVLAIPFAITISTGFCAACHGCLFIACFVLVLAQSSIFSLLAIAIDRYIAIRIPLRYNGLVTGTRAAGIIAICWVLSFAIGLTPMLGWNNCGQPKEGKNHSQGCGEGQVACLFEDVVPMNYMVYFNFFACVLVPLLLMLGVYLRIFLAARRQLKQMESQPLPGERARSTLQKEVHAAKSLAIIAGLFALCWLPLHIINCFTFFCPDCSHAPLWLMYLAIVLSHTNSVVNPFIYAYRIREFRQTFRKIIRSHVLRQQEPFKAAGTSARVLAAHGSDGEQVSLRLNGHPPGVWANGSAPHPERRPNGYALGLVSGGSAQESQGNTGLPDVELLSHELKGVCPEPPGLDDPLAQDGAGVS

We go through 1 substance from US8748182B2, “Mutant proteins and methods for producing them” (Heptares Therapeutics Limited, priority 2007, dated 2014).

As usually defined, the Ki is a measure of affinity in units of concentration, obtained from inhibition or displacement.

Regarding R-PIA, the inhibitory constant (Ki) on wild-type A2aR turned out to be 1.6e-05 M; in experiment [1], 0.0036 M.
